Measurements from PubChem BioAssay AID588499 (NMMLSC, 2011).
Only a part is listed here, and it is no random draw. Some of these compounds have results that are not shown, active ones among them. Activity calls are given as the source filed them. Cut-off read from the data, not from the text of the source: active = inhibition above about 30%; inconclusive = no clear call, values can overlap the other calls; inactive = below that.

system: Botulinum neurotoxin type A light chain protease (Clostridium botulinum A str. ATCC 3502); assay: blockers of BoNT/A LC substrate cleavage – biochemical, flow cytometry, MLPCN library, primary screen (AID 588499); settings: multiplex microsphere protease substrate cleavage, at 10 µM, hits give high values; note: plate controls were buffer without enzyme for full effect and enzyme alone for no effect

**Q.** How did the inhibition turn out when `COc1cc(SC)ccc1C(=O)NCC1(N(C)C)CCCCC1` was run?
**A.** inactive: 1.2%

**Q.** With `CCN(CC)CC(C)C(C)OC(=O)C(O)(c1ccccc1)c1ccccc1` (stereo unspecified) as the compound, how does the inhibition read?
**A.** inactive: 0.7%

**Q.** How did the inhibition turn out when `CC(C)N1C(=O)CC2(CCN(CCOC(=O)C(O)(c3ccccc3)c3ccccc3)CC2)C1=O` was run?
**A.** inactive: -0.3%

**Q.** For `Cc1ccc(C(=O)NCC2(N3CCCCC3)CCCCC2)cc1`, which inhibition is on record?
**A.** inactive: 0.9%

**Q.** How did the inhibition turn out when `O=C(NCC1(N2CCCCC2)CCCCC1)c1cc([N+](=O)[O-])ccc1Cl` was run?
**A.** inactive: 1.2%

**Q.** Which inhibition does the source give for `CN1[C@@H]2CC[C@H]1CC(OC(=O)C(O)(c1ccccc1)c1ccccc1)C2` (stereo partly specified) here?
**A.** inactive: -1.2%

**Q.** How did the inhibition turn out when `O=C(NCC1(N2CCCCC2)CCCCC1)c1cc(F)c(F)cc1Cl` was run?
**A.** inactive: -1.1%

**Q.** With `C=CCN1CCN(CCOC(=O)C(O)(c2ccccc2)c2ccccc2)CC1` as the compound, how does the inhibition read?
**A.** inactive: 0.2%

**Q.** How did the inhibition turn out when `COc1ccc(C(=O)NCC2(N(C)C)CCCCC2)cc1` was run?
**A.** inactive: -1.1%

**Q.** `O=C(NCC1(N2CCCCC2)CCCCC1)c1cccc(Br)c1` was tested. Which inhibition did it give?
**A.** inactive: -0.8%

**Q.** Which inhibition does the source give for `CCN1CCCC(OC(=O)C2(O)c3ccccc3C=Cc3ccccc32)C1` (stereo unspecified) here?
**A.** inactive: -0.5%

**Q.** How did the inhibition turn out when `Cc1cc(C(=O)NCC2(N3CCCCC3)CCCCC2)ccc1[N+](=O)[O-]` was run?
**A.** inactive: -2.2%

**Q.** `CN(C)c1ccc(C(=O)NCC2(N(C)C)CCCCC2)cc1` was tested. Which inhibition did it give?
**A.** inactive: -3.5%

**Q.** `CN(C)C1CCCC1OC(=O)C(O)(c1ccccc1)c1ccccc1` (stereo unspecified) was tested. Which inhibition did it give?
**A.** inactive: -1.1%

**Q.** Which inhibition does the source give for `Cc1ccccc1C(=O)NCC1(N2CCCCC2)CCCCC1` here?
**A.** inactive: 0.8%

**Q.** `COc1ccc(Cl)cc1C(=O)NCC1(N(C)C)CCCCC1` was tested. Which inhibition did it give?
**A.** inactive: -0.5%

**Q.** How did the inhibition turn out when `COc1cccc(C(=O)NCC2(N3CCCCC3)CCCCC2)c1` was run?
**A.** inactive: -0.2%

**Q.** `O=C(NCC1(N2CCCCC2)CCCCC1)c1cccc(Cl)c1` was tested. Which inhibition did it give?
**A.** inactive: 3%

**Q.** How did the inhibition turn out when `CN(C)C1(CNC(=O)c2ccc(Br)cc2)CCCCC1` was run?
**A.** inactive: 0.2%

**Q.** Which inhibition does the source give for `COc1cc(C(=O)NCC2(N(C)C)CCCCC2)c([N+](=O)[O-])cc1OC` here?
**A.** inactive: -0.4%

**Q.** For `C=C(C)C#CC(O)(C(=O)OC1CCN(C)CC1)c1ccccc1` (stereo unspecified), which inhibition is on record?
**A.** inactive: -0.3%

**Q.** How did the inhibition turn out when `COc1ccc(Br)c(C(=O)NCC2(N3CCCCC3)CCCCC2)c1` was run?
**A.** inactive: 3.5%

**Q.** For `O=C(OCCN1CCCC1)C(O)(c1ccccc1)c1ccccc1`, which inhibition is on record?
**A.** inactive: 0.5%

**Q.** Which inhibition does the source give for `CC(C)Oc1ccc(C(=O)NCC2(N(C)C)CCCCC2)cc1` here?
**A.** inactive: 2.8%

**Q.** For `CN(C)c1cccc(C(=O)NCC2(N(C)C)CCCCC2)c1`, which inhibition is on record?
**A.** inactive: -0.1%

**Q.** Which inhibition does the source give for `O=C(OC1CN2CCC1CC2)C(CO)(c1ccccc1)c1ccccc1` (stereo unspecified) here?
**A.** inactive: -0.3%
